The results in this text go back to publication PMC7669678 (DNA repair, 2020).

This assay concerns the target T1, GST-C17orf53 (human, UniProt Q8N3J3 1-647).
T1 sequence (looked up): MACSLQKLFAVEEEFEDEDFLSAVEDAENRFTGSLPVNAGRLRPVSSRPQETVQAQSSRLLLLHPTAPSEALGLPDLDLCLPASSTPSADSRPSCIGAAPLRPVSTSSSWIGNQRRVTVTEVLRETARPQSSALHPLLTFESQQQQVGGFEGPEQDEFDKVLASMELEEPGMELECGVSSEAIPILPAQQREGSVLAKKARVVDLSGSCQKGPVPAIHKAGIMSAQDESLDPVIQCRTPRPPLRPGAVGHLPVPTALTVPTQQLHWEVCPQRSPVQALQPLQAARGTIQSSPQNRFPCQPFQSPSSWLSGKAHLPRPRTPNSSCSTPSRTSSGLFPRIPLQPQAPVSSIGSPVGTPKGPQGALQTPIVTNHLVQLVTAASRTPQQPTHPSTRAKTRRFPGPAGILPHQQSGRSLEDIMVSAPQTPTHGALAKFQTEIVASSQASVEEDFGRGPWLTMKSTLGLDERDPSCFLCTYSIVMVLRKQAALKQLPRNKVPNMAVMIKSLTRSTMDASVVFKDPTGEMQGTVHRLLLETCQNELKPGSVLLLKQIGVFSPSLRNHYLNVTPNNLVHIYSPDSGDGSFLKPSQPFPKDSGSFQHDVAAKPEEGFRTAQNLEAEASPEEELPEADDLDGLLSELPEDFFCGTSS
The assay is described as follows: pull-down.

B1: MBP-tagged RPA2 (natural protein, UniProt P15927 1-270, looked up)
chain: MWNSGFESYGSSSYGGAGGYTQSPGGFGSPAPSQAEKKSRARAQHIVPCTISQLLSATLVDEVFRIGNVEISQVTIVGIIRHAEKAPTNIVYKIDDMTAAPMDVRQWVDTDDTSSENTVVPPETYVKVAGHLRSFQNKKSLVAFKIMPLEDMNEFTTHILEVINAHMVLSKANSQPSAGRAPISNPGMSEAGNFGGNSFMPANGLTVAQNQVLNLIKACPRPEGLNFQDLKNQLKHMSVSSIKQAVDFLSNEGHIYSTVDDDHFKSTDAE
In the case of B1, the binding result is “binds”.
